Experimental data from US11707527B2, “Nanoscale drug carrier capable of passing through blood-brain barrier” (KUNSHAN XINYUNDA BIOTECH CO., LTD., priority 2017, dated 2023).

Columns and labels:
Format in all cases: cell-based
[1] = tested on: human BBB brain endothelial cells hCMEC/D3; assay: Endocytosis and lysosome co-localization in human brain endothelial cells (confocal microscopy)
Protocol: Human BBB brain endothelial cells hCMEC/D3 slides (BD Biosciences) were placed in a 6-well plate (with well diameter of 34.8 mm, Corning, USA) for culturing above to a density of about 60%, then the experiment was conducted. 1 μM FITC-labeled H-ferritin above was added, and incubated respectively for 5 min and 6 min at 37° C. Then the cells were washed with 0.3% BSA/PBS for three times, and finally fixed with 4% paraformaldehyde. After being washed with PBS (pH7.4) for three times, cell nuclei were stained with DAPI (Roche Applied Science) 10 min at room temperature. After being washed by PBS for three times again, the slides were mounted with a mounting medium, and observed by laser confocal microscopy (Olympus FluoView FV-1000, Tokyo, Japan).
Human BBB brain endothelial cells hCMEC/D3 slides (BD Biosciences) were placed in a 6-well plate for culturing to a density of about 60%, and then the experiment was conducted. 1 μM FITC-labeled H-ferritin was added, and Alexa Fluor 488-labeled mouse anti-human TfR1 monoclonal antibodies (1:200, Clone: M-A712, Santa Cruz) were added in the control group for incubation for 4 h in an incubator. The cells were fixed with 4% paraformaldehyde after being washed with PBS for three times. […]

[2] = tested on: human glioma U87-MG cells; assay: Specific binding to human glioma cells (flow cytometry); details: 50 μg/ml FITC-labeled, 45 min, 4° C.
Protocol: Human glioma U87-MG cells were cultured to about 1×10^5 and digested with trypsin. Then the cells were washed with 0.3% (w/v) BSA/PBS for three times. […] And then the cells were washed with 0.3% BSA/PBS for three times, finally resuspended in PBS. Fluorescence of the samples was measured by flow cytometry (wavelength 488).

[3] = tested on: human BBB brain endothelial hCMEC/D3 cells; assay: Specific binding of FITC-labeled ferritin to human brain endothelial cells (flow cytometry); details: 50 μg/ml FITC-labeled protein, 45 min, 4° C., hCMEC/D3, vs FITC-BSA
Protocol: Firstly, the invention proves in vitro that the receptor TfR1 of H-ferritin is highly expressed on human BBB brain endothelial hCMEC/D3 cells.
Human BBB brain endothelial hCMEC/D3 cells were cultured to about 1×10^5 (100×20 mm, dish Corning, USA) and digested with trypsin, then the cells were washed with 0.3% (w/v) BSA/PBS (pH7.4) for three times. […] The cells were washed with 0.3% BSA/PBS for three times, finally resuspended in PBS (pH7.4). And fluorescence of the samples was tested by flow cytometry (at a wavelength of 488 nm).

[4] = tested on: human glioma U87-MG cells; assay: Co-localization with lysosome in human glioma cells (confocal microscopy); details: 1 μM FITC-labeled, 4 h
Protocol: Human glioma U87-MG cells slides (BD Biosciences) were placed in a 6-well plate (with a well diameter of 34.8 mm, Corning, USA) for culturing to a density of about 60%. 1 μM FITC-labeled H-ferritin was added and incubated for 4 h in an incubator. The cells were fixed for 5 min with 4% paraformaldehyde after being washed with PBS (pH7.4) for three times. Then 0.1% Triton X-100 was used for cell permeabilization. After being washed with PBS again, the cells were blocked with 5% goat serum (ZSGB-BIO) for 30 min at room temperature, and then incubated with Alexa Fluor®555-labeled antibody and lysosome marker molecule LAMP1 (1:200, clone H4A3; Invitrogen) for 1 h at 37° C. Finally, cell nuclei were stained with DAPI (1 μg/mL, Roche Applied Science) for 10 min at room temperature.

Substance: HFn: 24-polymer cage protein self-assembled by H subunits of human ferritin, SEQ ID NO: 10, NCBI NP_002023.2
- endocytosis by human brain endothelial cells ([1]; 1 μM FITC-labeled, 37° C., 60 min, hCMEC/D3): effectively absorbed and endocytosed
- entering / co-localization with lysosome (LAMP1) in brain endothelial cells ([1]; hCMEC/D3, 4 h incubation): do not enter the lysosome
- specific binding to human glioma cells [2]: can directly bind
- specific binding with human brain endothelial cells [3]: specifically, directly binds
- entering lysosome (LAMP1) in glioma cells [4]: almost all antibodies enter the lysosome
